Ab-14 light chain CDR variants: yeast mating affinities

Reference: Engelhart et al. 2022, doi:10.1038/s41597-022-01779-4. File: FLAb, binding data.

Target peptide (SARS-CoV-2 spike, HR2 region): PDVDLGDISGINAS

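The parent was found by panning a naive human phage display library on the peptide. In library AAYL50, one, two or three CDR residues were substituted; doubles and triples were drawn at random. AlphaSeq pools MATa yeast showing the antibodies with MATalpha yeast showing the peptide. The frequency of each diploid, read from paired DNA barcodes, reflects how well the two displayed proteins bind. Read counts were normalised to the haploid input and turned into Kd by a linear fit to BCL2-family pairs of known affinity, for each replicate. The assay was run in three technical replicates.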

The variants keep the heavy chain, the linker and the frameworks of Ab-14 (scFv order VH, the linker GGGGSGGGGSGGGGS, VL).
VH: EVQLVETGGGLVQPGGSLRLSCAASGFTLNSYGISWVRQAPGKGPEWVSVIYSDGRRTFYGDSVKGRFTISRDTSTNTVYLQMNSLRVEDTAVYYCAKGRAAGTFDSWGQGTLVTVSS
VL: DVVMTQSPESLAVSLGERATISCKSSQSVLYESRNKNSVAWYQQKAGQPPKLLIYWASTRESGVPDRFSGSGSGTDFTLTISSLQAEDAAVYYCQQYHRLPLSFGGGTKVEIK

Each variant is given by its three light chain CDRs, as the data file delimits them; those of the parent are KSSQSVLYESRNKNSVA, WASTRES, QQYHRLPLS.
Every variant below is changed at S33 of the VL (sequential numbering).
Values are log10 of the apparent Kd in nM; lower means stronger binding.
Replicates are averaged; those with no signal do not enter the mean.
An entry "ND" has no value in the source: the pair was not observed among the diploids in that replicate. This suggests poor binding but is not conclusive.
As a blank, each scFv also met three strains without target: over library AAYL50, 18% of these pairings were detected, typically at 4.19 and seldom below 2.99. The control count says in how many pairings with the empty strains this scFv gave a signal.
In this assay the parent's reference entry averaged 0.65; its copy inside this library read 1.68.

The variant KSSQSVLYEARNKNWVH / WASTRES / QQYHRLPLS showed ND, ND, ND (controls 0 of 9).
The variant KSSQSVLYEFRNKNSVA / WASVRES / QQYHRLPLS showed 1.14, 1.22, 1.23 (mean 1.20; controls 0 of 9).
The variant KSSQSVLYMGRNKNSVA / WASRRES / QQYHRLPLS showed 6.23, ND, ND (controls 4 of 9).
The variant KSSQAVLVEHRNKNSVA / WASTRES / QQYHRLPLS showed 1.85, 2.00, 2.14 (mean 2.00; controls 3 of 9).
The variant KSSQSVLYEEINKCSVA / WASTRES / QQYHRLPLS showed 2.78, 3.03, 2.74 (mean 2.85; controls 3 of 9).
The variant KSSQSVLYEKRNKNSVA / WASTRVS / QQYHRNPLS showed ND, ND, ND (controls 1 of 9).
The variant KSSQSVLYEFRNKNSVA / WASTRES / QQYHRLPLS showed 0.75, 0.99, 1.33 (mean 1.02; controls 0 of 9).
The variant KSSQSVLYEERNKNSVA / WCSTREM / QQYHRLPLS showed 3.71, ND, ND (controls 4 of 9).
The variant KSSQSVLYEIRNDWSVA / WASTRES / QQYHRLPLS showed 2.11, 2.43, 2.19 (mean 2.24; controls 1 of 9).
The variant KSSQSVLYEMRNKNSVA / WASTRES / QQYHKLPLG showed 2.64, 3.07, 2.21 (mean 2.64; controls 2 of 9).
The variant KSSQSVLYEKRNKNSVA / WASHRES / QQYHRLHLS showed ND, ND, ND (controls 0 of 9).
The variant KSSQSVLYEYRHKTSVA / WASTRES / QQYHRLPLS showed ND, ND, ND (controls 0 of 9).
The variant KSYQSVLYETRNKNSVA / WASTRES / QQYHRLPLS showed 1.47, 1.62, 1.57 (mean 1.55; controls 1 of 9).
The variant KSSQSVLYELRNKNSVA / WASTMES / QLYHRLPLS showed 4.02, 4.70, ND (mean 4.36; controls 0 of 9).
The variant KSSQSVLYEVRNKNSVA / PASTMES / QQYHRLPLS showed ND, ND, 4.86 (controls 3 of 9).
The variant KSSQSVLYEWRNKNSVA / PASSRES / QQYHRLPLS showed ND, ND, ND (controls 0 of 9).
The variant KSSQSVLYEMRNKNSVA / WASTRES / QQYHTLPLL showed 2.10, 1.98, 3.56 (mean 2.55; controls 1 of 9).
The variant KSSQSVLYEVRNKNSVA / WASTRES / QQYHRLPLS showed 2.01, 2.17, 2.39 (mean 2.19; controls 3 of 9).
The variant KSSQSVLYELRNKNSVA / YASTRES / QQYHRLPLT showed ND, ND, ND (controls 0 of 9).
The variant KSSQSVLHEMRNKNSVV / WASTRES / QQYHRLPLS showed 2.72, 2.36, 3.13 (mean 2.74; controls 1 of 9).
The variant KSSQSVLYECRNHNSVA / WAFTRES / QQYHRLPLS showed ND, 3.85, ND (controls 1 of 9).
The variant KSSQSVLYEERNKNSVA / WASTRES / QQYHRLPLS showed 1.92, 1.73, 2.41 (mean 2.02; controls 3 of 9).
The variant KSSQSVLYEYRNKNSRA / WASTRES / QYYHRLPLS showed ND, ND, ND (controls 0 of 9).
The variant KSSQSVLYETRGENSVA / WASTRES / QQYHRLPLS showed 0.54, 0.67, 0.68 (mean 0.63; controls 2 of 9).
The variant KSSQSVLYEQRNKNSVA / WHSTRES / EQYHRLPLS showed ND, ND, ND (controls 2 of 9).
The variant KSSLSVLYEKRNRNSVA / WASTRES / QQYHRLPLS showed ND, ND, ND (controls 2 of 9).
The variant KSSQTVLYEMRNKNSVA / WASTRES / QQYHRLPLS showed ND, 2.85, ND (controls 0 of 9).
The variant KSSQSVLYEWRNKNSVE / WASTRES / QQYHRLQLS showed ND, ND, ND (controls 0 of 9).
The variant KSSQSVLYELRNKNSVA / WASTRES / QQSHRWPLS showed 1.53, 1.43, 1.51 (mean 1.49; controls 5 of 9).
The variant KSSQSVLYEQRNKNSVA / WASTRES / QAYHRLPLS showed 1.24, 1.21, 1.21 (mean 1.22; controls 1 of 9).
The variant KSSQSVLYEGRNNNSVA / WASTRES / QQYHRLPCS showed 0.44, 0.78, 0.53 (mean 0.58; controls 3 of 9).
The variant KSSNSVLYEHRNKNSVA / WASTRES / QQYHRLPLC showed 0.95, 1.03, 1.31 (mean 1.10; controls 0 of 9).
The variant KSSQSVLYEYRNKNSVA / WASHRES / QEYHRLPLS showed ND, ND, ND (controls 4 of 9).
The variant KSGQSVLYELRNKNSVA / WASTRET / QQYHRLPLS showed ND, ND, 3.63 (controls 0 of 9).
The variant KSSQSVLKEHRNKNSNA / WASTRES / QQYHRLPLS showed ND, 3.70, ND (controls 3 of 9).
The variant KSSQSVLYEIRNKNSIA / WASTRES / QQDHRLPLS showed ND, ND, ND (controls 0 of 9).
The variant KSSQSVLYEVRNKNSVA / WASTRES / WQYHRLLLS showed 3.02, 2.04, 2.58 (mean 2.55; controls 0 of 9).
The variant KSSQSVLYEMRSKNSVA / PASTRES / QQYHRLPLS showed ND, ND, ND (controls 0 of 9).
The variant KSSQSVLYEFRNKNSVA / WASTRES / QQNHRIPLS showed ND, 3.42, ND (controls 0 of 9).
The variant KSSQSVWYEDRNKNSVA / WASTRES / QQYHRLPLS showed 0.26, 0.52, 0.39 (mean 0.39; controls 1 of 9).
The variant KSSQSVNYEGRNKNSVA / WASTRES / QQYHRLPGS showed 1.74, 2.18, 2.13 (mean 2.02; controls 5 of 9).
The variant KSSQCVLYEVRNKNSVA / WASTREA / QQYHRLPLS showed ND, ND, ND (controls 2 of 9).
The variant KSSQSVLYECRNKNSRA / WASTRES / QQYHREPLS showed ND, ND, ND (controls 0 of 9).
The variant KSSQSVLYEDRNKNSVA / WASTRES / CQYHRLPLS showed ND, ND, ND (controls 1 of 9).
The variant KSSQSVLYETRNKNSVL / WASTRES / QQYHFLPLS showed ND, ND, ND (controls 0 of 9).
The variant KSSQSVFYEKRNKNSVA / WASTRES / QQYHRLPLS showed 1.58, 1.36, 1.68 (mean 1.54; controls 1 of 9).
The variant TSSQSVLYEIRNKNSVA / FASTRES / QQYHRLPLS showed ND, ND, ND (controls 1 of 9).
The variant KSSQSVLYENRNKRSVA / WASTRES / QQYHRQPLS showed ND, ND, 4.59 (controls 1 of 9).

Excerpt, the first 6 entries:

For KSSQSVLYEARNKNWVH / WASTRES / QQYHRLPLS, the assay gave ND, ND, ND (controls 0 of 9).
For KSSQSVLYEFRNKNSVA / WASVRES / QQYHRLPLS, the assay gave 1.14, 1.22, 1.23 (mean 1.20; controls 0 of 9).
For KSSQSVLYMGRNKNSVA / WASRRES / QQYHRLPLS, the assay gave 6.23, ND, ND (controls 4 of 9).
For KSSQAVLVEHRNKNSVA / WASTRES / QQYHRLPLS, the assay gave 1.85, 2.00, 2.14 (mean 2.00; controls 3 of 9).
For KSSQSVLYEEINKCSVA / WASTRES / QQYHRLPLS, the assay gave 2.78, 3.03, 2.74 (mean 2.85; controls 3 of 9).
For KSSQSVLYEKRNKNSVA / WASTRVS / QQYHRNPLS, the assay gave ND, ND, ND (controls 1 of 9).